Measurements taken from patent publication US6545045B1, “Prostaglandin E agonists for treatment of glaucoma” (Alcon Manufacturing, Ltd., priority 1998, dated 2003).

Protein sequences, listed by entry. Tags and fused reporters are not part of them. Residues count along the entry.
UniProt A0A061ILF4, 1-488: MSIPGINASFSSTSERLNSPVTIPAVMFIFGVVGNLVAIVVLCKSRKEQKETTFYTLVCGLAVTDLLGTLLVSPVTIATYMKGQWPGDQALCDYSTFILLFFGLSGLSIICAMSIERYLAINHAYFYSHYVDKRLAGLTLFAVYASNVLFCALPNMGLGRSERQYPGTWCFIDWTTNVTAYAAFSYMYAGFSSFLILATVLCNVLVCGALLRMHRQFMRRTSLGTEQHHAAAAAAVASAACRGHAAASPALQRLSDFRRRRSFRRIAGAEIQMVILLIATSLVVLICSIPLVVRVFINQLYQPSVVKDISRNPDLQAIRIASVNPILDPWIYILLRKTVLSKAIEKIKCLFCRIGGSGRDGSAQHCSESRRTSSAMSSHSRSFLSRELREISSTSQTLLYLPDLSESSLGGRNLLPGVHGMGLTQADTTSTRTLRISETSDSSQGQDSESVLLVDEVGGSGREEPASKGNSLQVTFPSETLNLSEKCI
UniProt P43116, whole entry: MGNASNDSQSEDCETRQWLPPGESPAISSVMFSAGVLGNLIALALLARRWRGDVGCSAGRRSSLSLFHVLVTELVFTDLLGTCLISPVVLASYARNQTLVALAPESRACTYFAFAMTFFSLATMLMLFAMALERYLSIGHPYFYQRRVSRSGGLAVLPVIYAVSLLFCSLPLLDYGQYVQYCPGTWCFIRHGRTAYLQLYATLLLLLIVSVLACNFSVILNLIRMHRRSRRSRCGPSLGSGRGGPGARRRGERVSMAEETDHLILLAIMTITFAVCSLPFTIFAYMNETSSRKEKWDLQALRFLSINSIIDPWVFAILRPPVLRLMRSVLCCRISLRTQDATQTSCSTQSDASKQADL

Tests used:
EP4 receptors = EP4 receptors (Cricetulus griseus, UniProt A0A061ILF4); experiment: cAMP production (radioimmunoassay) via EP4 receptors in Chinese hamster ovary cells; settings: read-out: Potency (EC50, nM) at EP4 Receptors in Chinese Hamster Ovary Cells, stimulated 15-60 min at 23° C
EP2 receptors = EP2 receptors (Homo sapiens, UniProt P43116); experiment: cAMP production (radioimmunoassay) via EP2 receptors in immortalized human non-pigmented ciliary epithelial cells

O=C(O)COC/C=C\C[C@@H]1[C@@H](/C=C/[C@@H](O)C2CCCCC2)[C@H](O)C[C@H]1Cl
EC50 (EP4 receptors): > 10000 nM | selectivity between EP2 and EP4 receptors (relative agonist potency) (EP2 receptors; EP2 versus EP4, from EC50 values of Table 1): more EP2-selective | EC50 (EP2 receptors; read-out: Potency (EC50, nM) at EP2 Receptors in Immortalized Human Non-pigmented Ciliary Epithelial Cells, cAMP production, stimulated 15-60 min at 23° C): 700 nM
